From article PMC11522279 come the findings set out here.

A short description of data set [1]: HRCECs, Ad-OGT / Ad-OGA, blot. Particulars: glycan lost; control: control adenovirus.
Data set [2] is described as follows: HRCECs, Ad-Flag-YAP, 25 mM glucose, blot. Conditions: glycan lost; control: siCtrl.
The nature of data set [3]: nuclear localisation of Flag-YAP-WT, HRCECs. Conditions: glycan lost; control: siCtrl.

B1: YAP (Yes-associated protein): OGA overexpression (protein)
parent chain: MDPGQQPPPQPAPQGQGQPPSQPPQGQGPPSGPGQPAPAATQAAPQAPPAGHQIVHVRGDSETDLEALFNAVMNPKTANVPQTVPMRLRKLPDSFFKPPEPKSHSRQASTDAGTAGALTPQHVRAHSSPASLQLGAVSPGTLTPTGVVSGPAATPTAQHLRQSSFEIPDDVPLPAGWEMAKTSSGQRYFLNHIDQTTTWQDPRKAMLSQMNVTAPTSPPVQQNMMNSASGPLPDGWEQAMTQDGEIYYINHKNKTTSWLDPRLDPRFAMNQRISQSAPVKQPPPLAPQSPQGGVMGGSNSNQQQQMRLQQLQMEKERLRLKQQELLRQVRPQAMRNINPSTANSPKCQELALRSQLPTLEQDGGTQNPVSSPGMSQELRTMTTNSSDPFLNSGTYHSRDESTDSGLSMSSYSVPRTPDDFLNSVDEMDTGDTINQSTLPSQQNRFPDYLEAIPGTNVDLGTLEGDGMNIEGEELMPSLQEALSSDILNDMESVLAATKLDKESFLTWL
On to B1, for which the “other: phosphorylation at S397” value in data set [1] is listed as “increases”.

B2: YAP (Yes-associated protein): siOGT (protein)
parent chain: B1 parent chain
With B2, in data set [2], the “other: phosphorylation at S397” value is listed as “increases”. The localisation_or_trafficking entry in data set [3] is “decreases”.
